Experimental data published in patent US20210113493A1, “KETAMINE FOR THE TREATMENT OF M[…] SYMPTOMS” (priority 2016, published 2021).

Tests used:
[1] = system: premenstrual dysphoric disorder (PMDD); assay: Intranasal S-(+)-ketamine in subjects with PMDD; format: in vivo; details: 30 mg per dose, 1 to 4 doses daily
Experimental: Enantiomerically pure S-(+)-ketamine hydrochloride (eq. 150 mg/mL) and a penetration enhancer (10 mg/mL) (e.g., tauroursodeoxycholic acid) are mixed with water and the pH of the resulting mixture is adjusted with 1N NaOH to approximately pH 4.51. Subjects suffering from premenstrual dysphoric disorder (PMDD) are provided with a nasal spraying configured to deliver a dose of 0.2 ml per spray to a nostril of the subject (30 mg per dose). The subjects can administer from 1 to 4 intranasal doses daily upon the appearance of symptoms. The doses can be administered at night so as not to interfere with the functionality of the subject.

[2] = system: subclinical menstrually related symptoms; details: 50 mg lozenges, ½ to 2 once to three times daily

Row | Structure (SMILES) | anxiety, anger, and/or dysphoria [1] | anxiety, anger, and/or dysphoria [2]
1 | CN[C@]1(c2ccccc2Cl)CCCCC1=O [S-(+)-ketamine] | experience a reduction in anxiety, anger, and/or dysphoria | –
2 | N[C@@]1(c2ccccc2Cl)CCC[C@@H](O)C1=O | – | experience a reduction in anxiety, anger, and/or dysphoria
